Measurements reported in patent publication US10555896B2, “Skin penetration enhancing method and its penetration enhancer” (XIAMEN UNIVERSITY, priority 2016, dated 2020).

Tested on: porcine skin

What does the source list for FITC-Dextran?
FITC-Dextran in the dermis: almost zero; FITC-Dextran that entered the dermis, of the total dose: 4.25%
